Values of other authors as cited in patent US5278324A, “Water soluble derivatives of taxol” (Virginia Tech Intellectual Properties, Inc., priority 1991, dated 1994).

System: tubulin
Conditions: cited from earlier work

## COc1cc2c(c(OC)c1OC)-c1ccc(OC)c(=O)cc1[C@@H](NC(C)=O)CC2 [colchicine]
  effect on microtubule formation: prevent microtubule formation
